Laboratory results reported in US20060067886A1, “Gastrin receptor-avid peptide conjugates” (priority 1997, published 2006).

Legend:
[1] = in vivo; settings: SCID, mouse, iv, 4 uCi, total radioactivity, Avg % ID/gm
Procedure: In vivo pharmacokinetic studies in human tumor bearing SCID mice. […] The xenograft models were produced by bilateral flank inoculation of 5×10^6 cells (PC-3 or MDA-MB-231 cells) per site. Four to six weeks post inoculation, palpable tumors were observed. At this point, the mice were injected with 4 μCi of the complex in […] of isotonic saline via the tail vein. The mice were euthanized and tissues and organs were excised from the animals at selected times post-injection (p.i.), including 15 minutes, 30 minutes, 1 hour, 4 hours, 24 hours, 48 hours, and 72 hours p.i. Subsequently, the tissues and organs were weighed and counted in a NaI well counter and the percent injected dose (% ID) and % ID/g of each organ or tissue calculated.
The mice were injected with 4 μCi of the complex in 100 μL of isotonic saline via the tail vein. The mice were euthanized by cervical dislocation. Tissues and organs were excised from the animals following at 1 hour, 4 hour, and 24 hours post-injection (p.i.). Subsequently, the tissues and organs were weighed and counted in a NaI well counter and the percent injected dose (% ID) and % ID/g of each organ or tissue calculated.

[2] = Biodistribution of radiometal-DOTA-BBN conjugates in CF1 normal mice; settings: 1 hour post-injection

In the case of `CSCC[C@H](NC(=O)[C@H](CC(C)C)NC(=O)[C@H](Cc1cnc[nH]1)NC(=O)CNC(=O)[C@@H](NC(=O)[C@H](C)NC(=O)[C@H](Cc1c[nH]c2ccccc12)NC(=O)[C@H](CCC(N)=O)NC(=O)CCCCCCCNC(=O)CN1CCN(CC(=O)O)CCN(CC(=O)O)CCN(CC(=O)O)CC1)C(C)C)C(N)=O` [111In-DOTA-8-Aoc-BBN[7-14]NH2, metal not drawn], the tissue uptake at 0.25 h ([1]; Lung, 15 min) is reported as 3.35 ± 1.22 %ID/g and the tissue uptake at 1 h ([1]; Tumor, 1 hr) is reported as 3.63 ± 1.11 %ID/g.

With `CSCC[C@H](NC(=O)[C@H](CC(C)C)NC(=O)[C@H](Cc1cnc[nH]1)NC(=O)CNC(=O)[C@@H](NC(=O)[C@H](C)NC(=O)[C@H](Cc1c[nH]c2ccccc12)NC(=O)[C@H](CCC(N)=O)NC(=O)CCCCCCCNC(=O)CN1CCN(CC(=O)O)CCN(CC(=O)O)CCN(CC(=O)O)CC1)C(C)C)C(N)=O` [149Pm-DOTA-8-Aoc-BBN[7-14]NH2] the “Avg % ID/gm, Heart” value [2] was 0.03 ± 0.06 % ID/gm and the “Avg % ID/gm, Kidney” value [2] was 3.74 ± 1.02 % ID/gm.

With `CSCC[C@H](NC(=O)[C@H](CC(C)C)NC(=O)[C@H](Cc1cnc[nH]1)NC(=O)CNC(=O)[C@@H](NC(=O)[C@H](C)NC(=O)[C@H](Cc1c[nH]c2ccccc12)NC(=O)[C@H](CCC(N)=O)NC(=O)CCCCCCCNC(=O)CN1CCN(CC(=O)O)CCN(CC(=O)O)CCN(CC(=O)O)CC1)C(C)C)C(N)=O` [177Lu-DOTA-8-Aoc-BBN[7-14]NH2] [metal not drawn] the “Avg % ID, Lung” value [2] was 0.03 ± 0.04 % ID.
